Laboratory results from patent US12030868B2, “Prodrugs of CGRP antagonists” (Pfizer Ireland Pharmaceuticals, priority 2018, dated 2024).

System: Caco-2 cells
Test: Caco-2 permeability assay
Assay type: in vitro ADME, human
Conditions: Caco-2 monolayer, donor 10 μM, 90 minutes, 37° C., pH 7.4
Excerpt: Caco-2 Permeability Assay
• The Caco-2 monolayer is widely used across the pharmaceutical industry as an in vitro model of the human small intestinal mucosa to predict the absorption of orally administered drugs.^1-4 • The Caco-2 cell model mimics processes such as transcellular transport, paracellular transport, and some aspects of efflux and active transport. • Readout: Papp (A→B), Papp (B→A), Efflux ratio, % Recovery • Controls: with and without Pgp inhibitor; Atenolol, Propanolol, Taxel-1 Assay Description:
The Caco-2 cells are cultured to confluency, trypsinized and seeded onto a filter transwell insert at a density of ^˜32,000 cells/well in DMEM cell culture medium. […]
At the end of the incubation, samples are taken from both donor and receiver compartments and transferred into 96-well assay plates containing internal standard solution (IS) in each well. After centrifugation, the supernatant solutions are transferred to clean 96 well plates and analyzed by LC-MS/MS. […] Each compound is analyzed by reversed phase HPLC.
The parameters Papp (apparent permeability) and efflux ratio are calculated as follows: Papp=(dQ/dt)×(1/C0)×(1/A) Efflux ratio=Papp[B→A]/Papp[A→B] • where dQ/dt is the permeability rate, C0 is the initial concentration in the donor compartment, and A is the surface area of the cell monolayer (0.33 cm^2). The Papp value is a rate measured in cm/s. […]

(R)-(7-methyl-5-(3-(4-(1-methylpiperidin-4-yl)piperazin-1-yl)-3-oxo-2-(4-(2-oxo-1,2-dihydroquinolin-3-yl)piperidine-1-carboxamido)propyl)-1H-indazol-1-yl)methyl decanoate and (R)-(7-methyl-5-(3-(4-(1-methylpiperidin-4-yl)piperazin-1-yl)-3-oxo-2-(4-(2-oxo-1,2-dihydroquinolin-3-yl)piperidine-1-carboxamido)propyl)-2H-indazol-2-yl)methyl decanoate [Example 53]
Papp A-B (apical to basolateral): 0.31 ×10⁻⁶ cm/s
Papp B-A (basolateral to apical): 4.1 ×10⁻⁶ cm/s
